Earlier results as cited in US20070087364A1, “In vitro erythroid micronucleus assay for genotoxicity” (Massachusetts Institute of Technology, priority 2005, published 2007).

System: bone marrow PCEs (reticulocytes)
Conditions: general statement on the model genotoxicants; cited from earlier work

With N-methyl-N-nitro-N-nitrosoguanidine as the substance, how does the “result in the in vivo MN assay” value read?
The value was “test positive”.
